{"source": "patent US9982028B2", "about": "“Recombinant human interferon-like proteins” (Novagen Holding Corporation, priority 2007, dated 2018)", "key": {"[1]": {"system": "human colon cancer LS 180 xenografts", "assay": "Human colon cancer xenograft model", "type": "in vivo, athymic nude Balb/c mice", "conditions": "LS 180 xenograft, 28 days; for Tumor weight (X ± SD): n = 10"}, "[2]": {"system": "human melanoma A-375 xenografts", "assay": "Human melanoma xenograft model", "type": "in vivo, athymic nude Balb/c mice", "conditions": "A-375 xenograft; for Tumor weight (X ± SD): 30 days (28 days in the source), n = 10"}, "[3]": {"system": "human prostate cancer PC-3 xenografts", "assay": "Human prostate cancer xenograft model", "type": "in vivo, athymic nude Balb/c mice", "conditions": "PC-3 xenograft; for Inhibition rate / Tumor weight (mean ± SD): 30 days; for Tumor weight (mean ± SD): n = 10", "protocol": "Colon cancer cell line (LS 180), melanoma cell line (A-375) and liver cancer cell line (Hep G2) were obtained from the American Type Culture Collection (ATCC, Rockville, Md.). Prostate cancer cell line (PC-3) was obtained from German National Resource Centre for Biological Material (DSMZ, Deutsche […] von Mikroorganismen and Zellkulturen, Germany). Lymphocytic cell line (HL 60(s) was purchased from Japanese Collection of Research Bioresources Cell Bank (JCRB, Japan). All cells were cultured according to their instructions (see Table 1). Briefly, LS 180 and Hep G2 were cultured in MEM medium. A-375 was cultured in DMEM. Both media were supplemented with 10% fetal bovine serum (FBS), 2 mM […] U/ml of penicillin, […] of streptomycin, 0.1 mM non-essential amino acids, and 1.0 mM sodium pyruvate. PC-3 and HL 60 (S) cells were cultured in RPMI 1640, supplemented with 10% FBS, 100 U/ml of penicillin, and […] of streptomycin. All cells were maintained in 5% CO2 atmosphere at 37° C. Human cancer xenograft models were established using the methods described by Beverly et al (118). […] For the treatment of 5-FU, 30 mg/kg of 5-FU was i.v. administrated once every two days for a total of 5 times. The groups and treatment doses are summarized below: Once treatment commenced, tumors were measured with a caliper once a week. […] Mice were sacrificed at the day of treatment discontinuation (day 30 after commencement of the treatment). Solid tumors were isolated, photographed, and measured. […] C is the average tumor weight in control group after treatment."}, "[4]": {"system": "human liver cancer Hep G2 xenografts", "assay": "Human liver cancer xenograft model", "type": "in vivo, athymic nude Balb/c mice", "conditions": "30 days; for Tumor weight (mean ± SD): n = 10"}, "[5]": {"assay": "General condition of the mice during treatment", "type": "in vivo", "conditions": "mice with human cancer xenografts, during the treatment period"}, "[6]": {"system": "Vesicular Stomatitis Virus (VSV) on WISH cells", "type": "cell-based", "conditions": "against VSV on WISH; units with reference to WHO international standards 94/786 and 95/650"}, "[7]": {"system": "human leukemia HL 60(s) xenografts", "assay": "Human leukemia xenograft model", "type": "in vivo, athymic nude Balb/c mice", "conditions": "HL 60(s) xenograft, 21 days; for Tumor weight (X ± SD): n = 10"}}}
{"substance": "HuIFN-α2b: recombinant human interferon alpha 2b (GeneBank NM_000605) expressed and purified in E. coli; the most-widely used human interferon product [reference compound]", "values": [{"measurement": "Inhibition rate", "setting": "[1]; 1.25 μg/kg daily s.c.", "result": 70.6, "unit": "%"}, {"measurement": "Tumor weight (X ± SD)", "setting": "[1]; 1.25 μg/kg daily s.c.", "result": "1.225 ± 0.565", "unit": "g"}, {"measurement": "Inhibition rate", "setting": "[1]; 12.5 μg/kg daily s.c.", "result": 74.2, "unit": "%"}, {"measurement": "Tumor weight (X ± SD)", "setting": "[1]; 12.5 μg/kg daily s.c.", "result": "1.076 ± 0.442", "unit": "g"}, {"measurement": "Inhibition rate", "setting": "[1]; 125 μg/kg daily s.c.", "result": 82.3, "unit": "%"}, {"measurement": "Tumor weight (X ± SD)", "setting": "[1]; 125 μg/kg daily s.c.", "result": "0.740 ± 0.310", "unit": "g"}, {"measurement": "Inhibition rate", "setting": "[2]; 1.25 μg/kg daily s.c.", "result": 38.2, "unit": "%"}, {"measurement": "Tumor weight (X ± SD)", "setting": "[2]; 1.25 μg/kg daily s.c.", "result": "1.890 ± 0.148", "unit": "g"}, {"measurement": "Inhibition rate", "setting": "[2]; 12.5 μg/kg daily s.c.", "result": 45.0, "unit": "%"}, {"measurement": "Tumor weight (X ± SD)", "setting": "[2]; 12.5 μg/kg daily s.c.", "result": "1.681 ± 0.132", "unit": "g"}, {"measurement": "Inhibition rate", "setting": "[2]; 125 μg/kg daily s.c.", "result": 69.9, "unit": "%"}, {"measurement": "Tumor weight (X ± SD)", "setting": "[2]; 125 μg/kg daily s.c.", "result": "0.920 ± 0.139", "unit": "g"}, {"measurement": "Inhibition rate", "setting": "[3]; 1.25 μg/kg daily s.c.", "result": 34.1, "unit": "%"}, {"measurement": "Tumor weight (mean ± SD)", "setting": "[3]; 1.25 μg/kg daily s.c.", "result": "1.284 ± 0.862", "unit": "g"}, {"measurement": "Inhibition rate", "setting": "[3]; 12.5 μg/kg daily s.c.", "result": 59.4, "unit": "%"}, {"measurement": "Tumor weight (mean ± SD)", "setting": "[3]; 12.5 μg/kg daily s.c.", "result": "0.790 ± 0.391", "unit": "g"}, {"measurement": "Inhibition rate", "setting": "[3]; 125 μg/kg daily s.c.", "result": 75.6, "unit": "%"}, {"measurement": "Tumor weight (mean ± SD)", "setting": "[3]; 125 μg/kg daily s.c.", "result": "0.476 ± 0.271", "unit": "g"}, {"measurement": "average volume of tumor mass", "setting": "[3]; 125 μg/kg daily s.c., day 28", "result": "620.7±296.6", "unit": "mm^3"}, {"measurement": "average volume of tumor mass", "setting": "[3]; 125 μg/kg daily s.c., day 30", "result": "691.9±428.3", "unit": "mm^3"}, {"measurement": "Inhibition rate", "setting": "[4]; 1.25 μg/kg daily s.c.", "result": 50.9, "unit": "%"}, {"measurement": "Tumor weight (mean ± SD)", "setting": "[4]; 1.25 μg/kg daily s.c.", "result": "1.070 ± 0.587", "unit": "g"}, {"measurement": "Inhibition rate", "setting": "[4]; 12.5 μg/kg daily s.c.", "result": 75.6, "unit": "%"}, {"measurement": "Tumor weight (mean ± SD)", "setting": "[4]; 12.5 μg/kg daily s.c.", "result": "0.531 ± 0.287", "unit": "g"}, {"measurement": "Inhibition rate", "setting": "[4]; 125 μg/kg daily s.c.", "result": 89.2, "unit": "%"}, {"measurement": "Tumor weight (mean ± SD)", "setting": "[4]; 125 μg/kg daily s.c.", "result": "0.235 ± 0.199", "unit": "g"}, {"measurement": "general condition of treated mice (eating, behavior, weight loss)", "setting": "[5]", "result": "generally ate and behaved normally, and had no weight loss"}, {"measurement": "anti-viral activity", "setting": "[6]", "result": "2.0×10^8 IU/mg"}, {"measurement": "Inhibition rate", "setting": "[7]; 1.25 μg/kg daily s.c.", "result": 35.5, "unit": "%"}, {"measurement": "Tumor weight (X ± SD)", "setting": "[7]; 1.25 μg/kg daily s.c.", "result": "2.401 ± 0.698", "unit": "g"}, {"measurement": "Inhibition rate", "setting": "[7]; 12.5 μg/kg daily s.c.", "result": 49.8, "unit": "%"}, {"measurement": "Tumor weight (X ± SD)", "setting": "[7]; 12.5 μg/kg daily s.c.", "result": "1.870 ± 0.660", "unit": "g"}, {"measurement": "Inhibition rate", "setting": "[7]; 125 μg/kg daily s.c.", "result": 69.8, "unit": "%"}, {"measurement": "Tumor weight (X ± SD)", "setting": "[7]; 125 μg/kg daily s.c.", "result": "1.124 ± 0.397", "unit": "g"}]}
